# Ab-91 heavy chain CDR variants: yeast mating affinities

From the AlphaSeq antibody data of Engelhart et al. 2022 (doi:10.1038/s41597-022-01779-4), copy in the FLAb collection.

Target: peptide PDVDLGDISGINAS, taken from heptad repeat 2 (HR2) of SARS-CoV-2 spike.

The variants keep the light chain, the linker and the frameworks of Ab-91 (scFv order VL, three GGGGS repeats, VH).
VL: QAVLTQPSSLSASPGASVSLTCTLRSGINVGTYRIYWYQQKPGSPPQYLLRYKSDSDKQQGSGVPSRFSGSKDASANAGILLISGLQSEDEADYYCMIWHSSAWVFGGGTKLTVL
VH: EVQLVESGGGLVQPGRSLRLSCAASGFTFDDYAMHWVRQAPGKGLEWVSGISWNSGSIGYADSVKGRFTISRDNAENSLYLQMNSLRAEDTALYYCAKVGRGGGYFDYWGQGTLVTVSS

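Library AAYL51 holds single substitutions and randomly drawn double and triple substitutions in the CDRs. The scFvs were displayed on barcoded MATa yeast, the peptide on MATalpha yeast. Binding brings cells together so that they mate, and sequencing counts the barcode pairs among the diploids. The ratio of observed to expected reads was calibrated, replicate by replicate, on BCL2-family standards whose Kd was known from biolayer interferometry. There are three technical replicates.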

Variants are written as CDR1, CDR2 and CDR3 of the heavy chain (limits as in the source). Parent: GFTFDDYAMH, GISWNSGSIGYADSVK, VGRGGGYFDY. Numbers give log10(Kd / nM), so 0 is 1 nM and 3 is 1 µM. Smaller is tighter. An entry "n.d." has no value in the source: the pair was not observed among the diploids in that replicate. This suggests poor binding but is not conclusive. Nonspecific signal, from three strains lacking the peptide, appeared in 21% of pairings of library AAYL51, centred on 4.54 (5% of these signals below 3.26); values are not corrected for it. For each scFv, signals with the empty controls are counted beside the result, with their mean in brackets. For reference, the parent read 1.86 as the reference entry and 0.88 as a member of this library.

| CDR-H1 | CDR-H2 | CDR-H3 | log10 Kd (nM) by replicate | signal with controls |
|---|---|---|---|---|
| GFYFDDYAMH | GISWNSFVIGYADSVK | VGRGGGYFDY | 4.62 n.d. n.d. | 2 of 9 (3.29) |
| GFTFDDYAMH | GISWNSGSIGIADSVK | VYRGGMYFDY | 5.25 5.09 n.d. | 6 of 9 (4.00) |
| GFTFDDYAMH | QISWHPGSIGYADSVK | VGRGGGYFDY | n.d. n.d. n.d. | 0 of 9 |
| GFTFDVYAMP | GISWNSGSIGVADSVK | VGRGGGYFDY | n.d. n.d. n.d. | 1 of 9 (4.18) |
| GFTFRDDAMH | GISWNSGSIGYADSVK | VGRGGEYFDY | n.d. 3.17 n.d. | 0 of 9 |
| GFTFDWYAMH | GISWNSGSIGYADSVR | VGRGGTYFDY | 3.21 3.14 3.24 | 1 of 9 (4.83) |
| GFTFDDYAMH | GISWNSGSIYYEDSVK | EGRGGGYFDY | n.d. n.d. n.d. | 4 of 9 (4.21) |
| GFTFDLYAMH | GISRNSGSIGYAFSVK | VGRGGGYFDY | 3.91 6.10 4.91 | 7 of 9 (4.36) |
| GFTMDDKAMH | GISWNSGSAGYADSVK | VGRGGGYFDY | 5.17 5.58 n.d. | 6 of 9 (4.81) |
| GFPFDDYAMH | GISWNSGSIEKADSVK | VGRGGGYFDY | n.d. 4.23 n.d. | 1 of 9 (3.62) |
| GFTPDDYAMH | GISWNSGSIGYQDSVK | VGRGGGYFDY | 4.53 n.d. n.d. | 0 of 9 |
| GFTFDDYAMH | GISWNSGSILYADSVK | VGRGGKYFDL | n.d. n.d. n.d. | 0 of 9 |
| GFTFDDVAMH | GISWNSGSIGYADSVK | VGLGGGYFDC | 2.91 3.35 2.96 | 2 of 9 (3.30) |
| GFTFDDYAMH | GISWNSGSIGTADSVK | IGRGGKYFDY | 2.00 1.81 1.92 | 3 of 9 (4.54) |
| GFTFDDYAMH | GINWGSGSIGYADSVR | VGRGGGYFDY | n.d. n.d. n.d. | 1 of 9 (3.15) |
| GFTFDDYAMH | GISWNPGSIGYADSVK | VGRGGGIFDK | n.d. n.d. n.d. | 3 of 9 (4.03) |
| GFTFDDYFHH | GMSWNSGSIGYADSVK | VGRGGGYFDY | n.d. n.d. n.d. | 1 of 9 (5.19) |
| GFTFDQYAMH | GISWNSGSIGYADSGK | VIRGGGYFDY | n.d. n.d. n.d. | 0 of 9 |
| KFTFDDYAMH | GISWNSGSIGYADSVK | VPRGGGYFHY | 5.70 4.89 4.28 | 4 of 9 (4.90) |
| GFTFDDYAMH | GISWQTGSIGYADSVK | VGRGGGCFDY | 4.09 3.84 5.48 | 2 of 9 (5.95) |
| GFTFDDYAMQ | GISWNSGSINYADSVK | VGHGGGYFDY | 4.43 6.26 n.d. | 6 of 9 (4.94) |
| GHTFDDYAMH | GISWNSGSIKYADSVK | VGRGGGYFDY | 3.73 n.d. n.d. | 1 of 9 (3.96) |
| GFTFDDYAMH | GISWNSGSIGIADSCK | VGRGGGYFDY | n.d. n.d. n.d. | 0 of 9 |
| GFTFIDDAMF | GISWNSGSIGYADSVK | VGRGGGYFDY | 6.51 6.25 n.d. | 5 of 9 (5.65) |
| GFHFDDYAMH | GISWIEGSIGYADSVK | VGRGGGYFDY | 2.14 1.65 1.29 | 0 of 9 |
| GFTFDDYAMH | IISWNSGSIGIADSVK | VGRGGGYFDY | n.d. n.d. n.d. | 0 of 9 |
| GFTFDDYAMH | GISWNSISIGYADGVK | VGRGGGYFDD | 4.85 n.d. 3.00 | 0 of 9 |
| GFTFDDYPMH | HISWNGGSIGYADSVK | VGRGGGYFDY | 3.96 n.d. 4.75 | 2 of 9 (4.32) |
| GFTFDDCAMH | GISWNSVSIGYADSVK | VGRGGRYFDY | n.d. n.d. n.d. | 1 of 9 (2.20) |
| GFTHDDYAMH | GISKNSGSIGYADSVK | VGRGGGYDDY | n.d. n.d. n.d. | 0 of 9 |
| GFTFDDYAMH | GISWNSGSIGAADSVK | VQRGGGYPDY | 3.88 n.d. 4.58 | 2 of 9 (3.41) |
| GFTFDDYAMH | AISWNSGSIGYADSVK | VGRGGGYFDY | n.d. n.d. n.d. | 0 of 9 |
| GFTFDDYAMH | GMSWNSTSIGYADSVK | VGRGGGYKDY | n.d. n.d. n.d. | 1 of 9 (4.41) |
| GKTFYDYAMH | GIVWNSGSIGYADSVK | VGRGGGYFDY | n.d. 3.71 n.d. | 1 of 9 (5.49) |
| GFTFFDYAMH | GISWRSGSIGYAYSVK | VGRGGGYFDY | n.d. n.d. n.d. | 1 of 9 (3.76) |
| GFTFDDYAMH | GISWNSGSIEPADSVK | VERGGGYFDY | n.d. n.d. n.d. | 3 of 9 (3.58) |
| GFTFGDYAMD | GISWNSGSIGYALSVK | VGRGGGYFDY | 4.70 n.d. 3.68 | 2 of 9 (3.90) |
| GFTFDDYAMH | GISWNSGSIGKADSVM | VGRGPGYFDY | 4.30 3.65 n.d. | 3 of 9 (4.62) |
| GFTFDDYAMH | GISWNIGSNGYADSFK | VGRGGGYFDY | n.d. n.d. n.d. | 2 of 9 (4.27) |

The first 6 variants above that were never detected:

| CDR-H1 | CDR-H2 | CDR-H3 | log10 Kd (nM) by replicate | signal with controls |
|---|---|---|---|---|
| GFTFDDYAMH | QISWHPGSIGYADSVK | VGRGGGYFDY | n.d. n.d. n.d. | 0 of 9 |
| GFTFDVYAMP | GISWNSGSIGVADSVK | VGRGGGYFDY | n.d. n.d. n.d. | 1 of 9 (4.18) |
| GFTFDDYAMH | GISWNSGSIYYEDSVK | EGRGGGYFDY | n.d. n.d. n.d. | 4 of 9 (4.21) |
| GFTFDDYAMH | GISWNSGSILYADSVK | VGRGGKYFDL | n.d. n.d. n.d. | 0 of 9 |
| GFTFDDYAMH | GINWGSGSIGYADSVR | VGRGGGYFDY | n.d. n.d. n.d. | 1 of 9 (3.15) |
| GFTFDDYAMH | GISWNPGSIGYADSVK | VGRGGGIFDK | n.d. n.d. n.d. | 3 of 9 (4.03) |